The record followed here is patent US4891377A, “Transdermal delivery of the narcotic analgesics etorphine and analogs” (dated 1990).

The test system of test [1] is KB cells. Kind of test: Incorporation of labeled precursors into DNA, RNA and protein in KB cells. The settings on record: 20-24 hours.
For test [2], the system named is KB cells.
Where [3] appears, read: read-out: IC50 DNA, [3H]thymidine incorporation.
Where [4] appears, read: read-out: IC50 Protein, 3H-amino acids incorporation.
The mark [5] stands for this setting: read-out: IC50 RNA, [3H]uridine incorporation.

Like-named read-outs stand apart in the source and are kept apart here.

Turning to `CN1CC[C@]23c4c5ccc(O)c4O[C@H]2C(=O)CC[C@H]3[C@H]1C5`, the IC50 in the test on KB cells [1] (setting [3]), in the test with KB cells [1] (setting [4]) and in the test with KB cells [1] (setting [5]) was more than 1000 µM in each case.
As for `COC1=CC=C2[C@H]3Cc4ccc(OC)c5c4[C@@]2(CCN3C)[C@H]1O5`, the concentration for half-maximal inhibition (IC50) in the test on KB cells [2] was 740 µM; with KB cells [1] (setting [3]), more than 1000 µM; in the test with KB cells [1] (setting [4]) it was more than 1000 µM; in the test with KB cells [1] (setting [5]), more than 1000 µM.
Consider `COc1ccc2c3c1O[C@H]1[C@@H](O)C=C[C@H]4[C@@H](C2)N(C)CC[C@@]341`, for which the IC50 in the test with KB cells [2] was 340 µM; with KB cells [1] (setting [3]), more than 1000 µM; with KB cells [1] (setting [4]), more than 1000 µM; in the test on KB cells [1] (setting [5]) it was more than 1000 µM.

By IC50 is commonly meant the concentration that inhibits the measured activity by half.
